{"source": "patent US11927585B2", "about": "“Solvent-based inks and coatings for food contact applications” (SUN CHEMICAL CORPORATION, priority 2020, dated 2024)", "key": {"[1]": {"assay": "Migration testing, 3% acetic acid at 20° C., GC-MS", "settings": "from print of ink SBDEV977 (Ex. 4A Yellow), 2.0 g/m^2, 10 days, ND = not detected, asterisk = exceeds SML"}, "[2]": {"assay": "Migration testing, hot fill boiled water test, GC-MS", "settings": "from print of ink SBDEV977 (Ex. 4A Yellow), water at 100° C. then cooled about 1 hour, ND = not detected, asterisk = exceeds SML"}, "[3]": {"assay": "Evaluation of empirical migration levels against SML in the exposure scenarios (adjusted migration, coverage restriction)", "settings": "from SBDEV977; for empirical migration level in the packaging scenario (of the SML): Application 1 (Yoghurt lids), 39% of EU Cube exposure; for true migration value in the packaging scenario (of the SML): highest measured migration value"}, "[4]": {"assay": "Migration testing, 50% ethanol at 20° C., GC-MS", "settings": "from print of ink SBDEV977 (Ex. 4A Yellow), 2.0 g/m^2, 10 days; ND = not detected"}}, "note": "Marks after values point to notes of the source that are not given here."}
{"smiles": "CCCCOP(=O)(OCCCC)OCCCC", "values": [{"measurement": "Analytically measured migration (% SML) 3% acetic acid 20° C.", "setting": "[1]", "value": "178* % SML"}, {"measurement": "Analytically measured migration (% SML) 3% acetic acid 20° C.", "setting": "[1]; listed as Tributyl phosphate", "value": 178, "unit": "% SML"}, {"measurement": "Analytically measured migration (% SML) Hot fill boiled water", "setting": "[2]", "value": "200* % SML"}, {"measurement": "Analytically measured migration (% SML) Hot fill boiled water", "setting": "[2]; listed as Tributyl phosphate", "value": 200, "unit": "% SML"}, {"measurement": "empirical migration level in the packaging scenario (of the SML)", "setting": "[3]; 3% acetic acid at 20° C. test", "value": 69, "unit": "%"}, {"measurement": "empirical migration level in the packaging scenario (of the SML)", "setting": "[3]; hot filled boiled water test", "value": 78, "unit": "%"}, {"measurement": "true migration value in the packaging scenario (of the SML)", "setting": "[3]; Application 2 (Wrap covering cheese), 144% of EU Cube exposure", "value": 288, "unit": "%"}, {"measurement": "true migration value in the packaging scenario (of the SML)", "setting": "[3]; Application 3 (Coffee capsules), upper end 152% of EU Cube exposure", "value": 304, "unit": "%"}, {"measurement": "Analytically measured migration (% SML) 50% EtOH 20° C.", "setting": "[4]", "value": 46, "unit": "% SML"}]}
